Legend:
[1] = target: recombinant TEAD4 protein (217-434, Uniprot ID: Q15561) (Homo sapiens (Human), UniProt Q15561); experiment: Thermal shift assay (protein melting point curve), TEAD4; type: binding; design: key to the marks not given beside the values; details: 10 μM TEAD protein, 50 μM test compound
[2] = target: recombinant TEAD3 protein central pocket (Homo sapiens (Human), UniProt Q99594); experiment: Competitive thiol binding assay (CPM assay), TEAD3; details: read-out: IC50, TEAD3, 150 nM recombinant TEAD protein, 150 nM CPM
[3] = tested on: TEAD family proteins; experiment: Thermal shift assay, summary over all TEAD subtypes; details: summary of Table 1
[4] = target: recombinant TEAD2 protein (218-447, Uniprot ID: Q15562) (Homo sapiens (Human), UniProt Q15562); experiment: Thermal shift assay (protein melting point curve), TEAD2; type: binding; design: key to the marks not given beside the values; details: 10 μM TEAD protein, 50 μM test compound
[5] = target: recombinant TEAD4 protein central pocket (Homo sapiens (Human), UniProt Q15561); experiment: Competitive thiol binding assay (CPM assay), TEAD4; details: read-out: IC50, TEAD4, 150 nM recombinant TEAD protein, 150 nM CPM
[6] = tested on: recombinant TEAD1 protein (194-411, Uniprot ID: P28347); experiment: Thermal shift assay (protein melting point curve), TEAD1; design: key to the marks not given beside the values; details: 10 μM TEAD protein, 50 μM test compound
[7] = target: recombinant TEAD2 protein central pocket (Homo sapiens (Human), UniProt Q15562); experiment: Competitive thiol binding assay (CPM assay), TEAD2; details: read-out: IC50, TEAD2, 150 nM recombinant TEAD protein, 150 nM CPM
[8] = target: recombinant TEAD3 protein (218-435, Uniprot ID: Q99594) (Homo sapiens (Human), UniProt Q99594); experiment: Thermal shift assay (protein melting point curve), TEAD3; type: binding; design: key to the marks not given beside the values; details: 10 μM TEAD protein, 50 μM test compound
[9] = target: recombinant TEAD1 protein central pocket (Homo sapiens (Human), UniProt P28347); experiment: Competitive thiol binding assay (CPM assay), TEAD1; details: read-out: IC50, TEAD1, 150 nM recombinant TEAD protein, 150 nM CPM

Protein sequences, listed by entry. Tags and fused reporters are not part of them. Residues count along the entry.
UniProt Q15561, whole entry: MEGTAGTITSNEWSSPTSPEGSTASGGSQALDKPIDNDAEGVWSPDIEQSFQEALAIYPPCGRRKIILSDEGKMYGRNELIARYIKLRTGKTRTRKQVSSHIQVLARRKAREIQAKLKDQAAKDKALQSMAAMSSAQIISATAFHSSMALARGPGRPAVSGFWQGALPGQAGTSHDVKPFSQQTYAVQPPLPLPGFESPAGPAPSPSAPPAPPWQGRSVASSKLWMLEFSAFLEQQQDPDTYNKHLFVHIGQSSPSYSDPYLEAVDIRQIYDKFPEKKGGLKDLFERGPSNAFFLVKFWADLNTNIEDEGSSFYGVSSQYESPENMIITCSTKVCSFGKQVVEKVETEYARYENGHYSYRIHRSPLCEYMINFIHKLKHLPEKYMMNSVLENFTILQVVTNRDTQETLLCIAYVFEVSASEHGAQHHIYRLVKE
UniProt Q15561, 217-434 limits assumed: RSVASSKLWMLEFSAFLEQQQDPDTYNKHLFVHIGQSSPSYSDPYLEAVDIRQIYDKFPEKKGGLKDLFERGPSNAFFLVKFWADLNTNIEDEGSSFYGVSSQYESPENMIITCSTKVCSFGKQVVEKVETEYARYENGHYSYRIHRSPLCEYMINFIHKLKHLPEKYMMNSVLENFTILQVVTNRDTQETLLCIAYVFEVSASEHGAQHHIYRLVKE
UniProt Q99594, 218-435 limits assumed: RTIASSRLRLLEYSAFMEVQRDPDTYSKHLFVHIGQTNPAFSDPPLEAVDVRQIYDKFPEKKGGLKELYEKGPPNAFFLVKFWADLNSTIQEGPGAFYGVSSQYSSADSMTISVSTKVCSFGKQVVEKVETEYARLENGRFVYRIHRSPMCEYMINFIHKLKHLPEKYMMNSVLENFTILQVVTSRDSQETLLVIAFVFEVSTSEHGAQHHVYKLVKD
UniProt Q99594, whole entry: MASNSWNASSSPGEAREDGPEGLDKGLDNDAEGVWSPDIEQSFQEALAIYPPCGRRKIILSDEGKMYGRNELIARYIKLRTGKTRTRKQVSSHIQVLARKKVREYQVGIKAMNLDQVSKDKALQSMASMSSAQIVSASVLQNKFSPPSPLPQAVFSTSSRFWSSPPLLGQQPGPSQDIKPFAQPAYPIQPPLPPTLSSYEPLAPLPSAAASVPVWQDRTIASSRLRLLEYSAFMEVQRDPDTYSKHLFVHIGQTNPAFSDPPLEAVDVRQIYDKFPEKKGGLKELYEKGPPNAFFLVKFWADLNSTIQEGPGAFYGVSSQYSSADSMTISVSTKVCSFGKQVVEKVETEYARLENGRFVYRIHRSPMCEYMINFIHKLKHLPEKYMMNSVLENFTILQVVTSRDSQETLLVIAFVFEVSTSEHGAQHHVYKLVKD
UniProt Q15562, 218-447 limits assumed: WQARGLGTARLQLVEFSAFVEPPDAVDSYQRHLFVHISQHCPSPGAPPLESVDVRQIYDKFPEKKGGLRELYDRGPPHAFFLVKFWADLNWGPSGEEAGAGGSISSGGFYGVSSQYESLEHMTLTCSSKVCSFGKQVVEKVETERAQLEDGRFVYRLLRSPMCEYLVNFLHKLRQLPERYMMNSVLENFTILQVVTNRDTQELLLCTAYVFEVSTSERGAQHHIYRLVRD
UniProt Q15562, whole entry: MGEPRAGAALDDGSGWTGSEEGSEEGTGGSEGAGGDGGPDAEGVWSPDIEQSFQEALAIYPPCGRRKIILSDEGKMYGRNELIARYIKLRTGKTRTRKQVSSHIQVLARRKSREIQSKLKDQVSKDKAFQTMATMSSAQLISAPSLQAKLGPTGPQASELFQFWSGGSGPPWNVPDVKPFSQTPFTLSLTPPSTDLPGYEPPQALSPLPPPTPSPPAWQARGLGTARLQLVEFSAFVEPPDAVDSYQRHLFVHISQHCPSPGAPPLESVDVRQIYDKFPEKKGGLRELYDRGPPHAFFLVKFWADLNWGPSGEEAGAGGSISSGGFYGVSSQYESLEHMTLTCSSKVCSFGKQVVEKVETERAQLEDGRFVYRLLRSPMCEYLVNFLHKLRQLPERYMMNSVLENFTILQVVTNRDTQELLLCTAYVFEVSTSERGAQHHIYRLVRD
UniProt P28347, whole entry: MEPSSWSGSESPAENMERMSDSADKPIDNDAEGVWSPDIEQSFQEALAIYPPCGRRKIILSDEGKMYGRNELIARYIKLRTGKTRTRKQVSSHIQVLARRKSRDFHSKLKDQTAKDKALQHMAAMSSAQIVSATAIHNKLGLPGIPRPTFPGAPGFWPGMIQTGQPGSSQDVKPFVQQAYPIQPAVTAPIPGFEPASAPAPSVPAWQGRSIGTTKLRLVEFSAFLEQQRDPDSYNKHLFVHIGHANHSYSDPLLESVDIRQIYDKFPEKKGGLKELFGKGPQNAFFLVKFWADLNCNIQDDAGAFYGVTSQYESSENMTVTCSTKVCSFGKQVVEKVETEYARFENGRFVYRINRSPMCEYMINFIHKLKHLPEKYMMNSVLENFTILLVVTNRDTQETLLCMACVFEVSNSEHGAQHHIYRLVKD

Δ T m (TEAD4) [1]	IC50 [2] [nM]	binding ability to each subtype of TEAD family proteins [3]	Δ T m (TEAD2) [4]	IC50 [5] [nM]	IC50 [7] [nM]	Δ T m (TEAD3) [8]	IC50 [9] [nM]	SMILES	Δ T m (TEAD1) [6]
++++	490	good binding abilities	+++	180	380	+++	220	CP(C)(=O)c1ccc(NC2CCC(C(F)(F)F)CC2)c(-c2ncccn2)c1 (stereo not drawn)	+++
–	–	good binding abilities	+++	–	–	++	–	C=CP(=O)(C=C)c1ccc(Nc2ccc(C(F)(F)F)cc2)c(-c2nccc(OC3COC3)n2)c1	++++
–	–	good binding abilities	–	–	–	–	–	Cn1cnc(-c2cc(P(C)(C)=O)ccc2Nc2ccc(C(F)(F)F)cc2)n1	++++

From patent US20260055126A1, “SMALL MOLECULE COMPOUNDS WITH PHOSPHORYLATED ARYL STRUCTURES AND USE THEREOF” (HANGZHOU PHECDAMED CO., LTD., priority 2022, published 2026)
